Target: WT STING (Homo sapiens, UniProt Q86WV6, H232R)
Test: 293T WT STING standard reporter assay
Type: cell-based
Set-up: host or cells: 293T (ATCC CRL-3216), stably transfected, with 4xISRE firefly luciferase reporter
Settings: 293T WT STING EC50 (μM), 293T wtSTING-FL cells, ISRE firefly luciferase; no digitonin; 7 hours with compounds; 8-point curve
Text: Two complementary oligonucleotides of the sequence […] […] […] […] […] The oligonucleotides were mixed in equal molar amounts, hybridized, and cleaved by restriction endonucleases HindIII (cat. #. R0104S, NEB, Ipswich, USA) and BglII (cat. #R0144S, NEB, Ipswich, USA). Ultimately, they were ligated into plasmid pGL4.27 (cat. #E6651, Promega, Madison, USA) linearized with the same enzymes. As result the sequence with four ISRE sites was placed upstream of the minimum promoter of firefly luciferase reporter gene.
After 5 minutes incubation at room temperature (RT), 250 μL of the mixture was added dropwise to the cells in one well. Cells were incubated 36 hours at 37° C. with 5% CO2, and then detached with 0.05% Trypsin and 0.22 g/L EDTA (both cat. #L0941, Biowest, Riverside, USA).
Transfected cells were seeded onto poly-D-lysine coated six well plates at density 50,000 cells per 1 cm^2 in DMEM medium with high glucose containing 10% heat inactivated FBS, 30 μg/mL blasticidin (cat. #ant-b1-05, InvivoGen, San Diego, USA), 0.06 mg/ml Penicillin G and 0.1 mg/ml Streptomycin Sulfate (both cat. #. L0018, Biowest, Riverside, USA). The medium was replenished every 3-4 days until visible colonies of cells resistant to blasticidin were formed.
Blasticidin resistant cells stably expressing WT STING were further transfected with […] plasmid following the same procedure as described above. […] Homogeneous culture of stably double transfected cells was prepared by limiting dilution of cells in 96 well plates and wells with cells were selected that originated from a single cell.
The medium was removed next day and three-fold serial dilutions of compounds in 100 μl medium were added to the cells. The plates with cells were incubated for 7 hours at 37° C. with 5% CO2. After 50 μl of the medium was removed, 30 μl of ONE-Glo™ Luciferase Assay System reagent (cat. #E6120, Promega, Madison, USA) was added to each well and luminescence was read on Synergy H1 (Biotek, Winooski, USA).

Protein sequences, listed by entry. Tags and fused reporters are not part of them.
UniProt Q86WV6, whole entry H232R: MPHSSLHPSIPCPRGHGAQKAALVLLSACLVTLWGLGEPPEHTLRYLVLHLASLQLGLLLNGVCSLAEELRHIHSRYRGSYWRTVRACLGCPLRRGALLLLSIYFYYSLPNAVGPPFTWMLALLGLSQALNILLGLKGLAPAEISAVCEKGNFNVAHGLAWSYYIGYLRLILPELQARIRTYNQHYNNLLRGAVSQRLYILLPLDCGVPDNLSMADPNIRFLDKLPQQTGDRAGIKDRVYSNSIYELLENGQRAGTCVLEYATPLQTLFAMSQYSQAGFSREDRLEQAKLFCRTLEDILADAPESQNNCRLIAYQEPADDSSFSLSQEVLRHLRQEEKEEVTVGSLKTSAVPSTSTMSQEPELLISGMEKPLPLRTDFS

SMILES	EC50 [µM]
CC(C)(C)C(=O)OCSP1(=O)OC[C@H]2O[C@@H](n3cnc4c(N)ncnc43)C(F)C2OP(=O)(SCOC(=O)C(C)(C)C)OC[C@H]2C[C@@H](n3cnc4c(N)ncnc43)C(F)C2O1 (stereo partly drawn) [Compound 140, (((2R,3R,3aR,7aR,9R,10S,10aR,14aR)-2,9-bis(6-amino-9H-purin-9-yl)-3,10-difluoro-5,12-dioxidodecahydro-2H-cyclopenta[d]furo[3,2-j][1,3,7,9]tetraoxa[2,8]di-phosphacyclododecine-5,12-diyl)bis(sulfanediyl))bis(methylene) bis(2,2-dimethylpropanoate)]	0.001
CC(C)(C)C(=O)OCSP1(=O)OC[C@H]2C[C@@H](n3cnc4c(N)ncnc43)C(F)[C@H]2OP(=O)(SCOC(=O)C(C)(C)C)OC[C@H]2O[C@@H](n3cnc4c(=O)[nH]c(N)nc43)[C@@H](F)C2O1 (stereo partly drawn) [Compound 150b, {[(1R,6R,8R,9R,10R,15R,17R,18S)-8-(2-amino-6-oxo-6,9-dihydro-1H-purin-9-yl)-17-(6-amino-9H-purin-9-yl)-3-({[(2,2-dimethylpropanoyl)oxy]methyl}sulfanyl)-9,18-difluoro-3,12-dioxo-2,4,7,11,13-pentaoxa-3λ^5,12λ^5-diphosphatricyclo[13.3.0.0^6,10]octadecan-12-yl]sylfanyl}methyl 2,2-dimethylpropanoate]	0.2
CC(C)(C)C(=O)OCSP1(=O)OC[C@H]2O[C@@H](n3cnc4c(N)ncnc43)C[C@@H]2OP(=O)(SCOC(=O)C(C)(C)C)OC[C@H]2C[C@@H](n3cnc4c(N)ncnc43)[C@H](F)[C@@H]2O1 (stereo partly drawn) [Compound 151, {[(1R,6R,8R,10S,15R,17R,18S)-8,17-bis(6-amino-9H-purin-9-yl)-3-({[(2,2-dimethylpropanoyl)oxy]methyl}sulfanyl)-18-fluoro-3,12-dioxo-2,4,7,11,13-pentaoxa-3λ^5,12λ^5-diphosphatricyclo[13.3.0.0^6,10]octadecan-12-yl]sulfanyl}methyl 2,2-dimethylpropanoate]	0.008
CC(C)(C)C(=O)OCSP1(=O)OC[C@H]2O[C@@H](n3cnc4c(=O)[nH]c(N)nc43)[C@H](F)[C@@H]2OP(=O)(SCOC(=O)C(C)(C)C)OC[C@H]2C[C@@H](n3cnc4c(N)ncnc43)[C@H](F)[C@@H]2O1 (single isomer, unassigned) [Compound 150a]	0.04
CC(C)(C)C(=O)OCSP1(=O)OC[C@H]2O[C@@H](n3cnc4c(N)ncnc43)[C@H](F)[C@@H]2OP(=O)(O)OC[C@H]2C[C@@H](n3cnc4c(N)ncnc43)[C@H](F)[C@@H]2O1 (single isomer, unassigned) [Compound 149a]	0.2
CC(C)(C)C(=O)OCSP1(=O)OC[C@H]2C[C@@H](n3cnc4c(=O)[nH]c(N)nc43)C[C@@H]2OP(=O)(SCOC(=O)C(C)(C)C)OC[C@H]2O[C@@H](n3cnc4c(N)ncnc43)[C@H](F)[C@@H]2O1 (stereo partly drawn) [Compound 148, {[(1S,6R,8R,9R,10R,15R,17R)-17-(2-amino-6-oxo-6,9-dihydro-1H-purin-9-yl)-8-(6-amino-9H-purin-9-yl)-3-({[(2,2-dimethylpropanoyl)oxy]methyl}sulfanyl)-9-fluoro-3,12-dioxo-2,4,7,11,13-pentaoxa-3λ^5,12λ^5-diphosphatricyclo[13.3.0.0^6,10]octadecan-12-yl]sulfanyl}methyl 2,2-dimethylpropanoate]	0.02
